These results are taken from ChEMBL document CHEMBL6153079, “Discovery of noncovalent diaminopyrimidine-based Inhibitors for glioblastoma via a dual FAK/DNA targeting strategy” (Eur J Med Chem, 2025).

Chains of the proteins cited; added tags and fusions are not shown.
UniProt Q05397, whole entry, looked up: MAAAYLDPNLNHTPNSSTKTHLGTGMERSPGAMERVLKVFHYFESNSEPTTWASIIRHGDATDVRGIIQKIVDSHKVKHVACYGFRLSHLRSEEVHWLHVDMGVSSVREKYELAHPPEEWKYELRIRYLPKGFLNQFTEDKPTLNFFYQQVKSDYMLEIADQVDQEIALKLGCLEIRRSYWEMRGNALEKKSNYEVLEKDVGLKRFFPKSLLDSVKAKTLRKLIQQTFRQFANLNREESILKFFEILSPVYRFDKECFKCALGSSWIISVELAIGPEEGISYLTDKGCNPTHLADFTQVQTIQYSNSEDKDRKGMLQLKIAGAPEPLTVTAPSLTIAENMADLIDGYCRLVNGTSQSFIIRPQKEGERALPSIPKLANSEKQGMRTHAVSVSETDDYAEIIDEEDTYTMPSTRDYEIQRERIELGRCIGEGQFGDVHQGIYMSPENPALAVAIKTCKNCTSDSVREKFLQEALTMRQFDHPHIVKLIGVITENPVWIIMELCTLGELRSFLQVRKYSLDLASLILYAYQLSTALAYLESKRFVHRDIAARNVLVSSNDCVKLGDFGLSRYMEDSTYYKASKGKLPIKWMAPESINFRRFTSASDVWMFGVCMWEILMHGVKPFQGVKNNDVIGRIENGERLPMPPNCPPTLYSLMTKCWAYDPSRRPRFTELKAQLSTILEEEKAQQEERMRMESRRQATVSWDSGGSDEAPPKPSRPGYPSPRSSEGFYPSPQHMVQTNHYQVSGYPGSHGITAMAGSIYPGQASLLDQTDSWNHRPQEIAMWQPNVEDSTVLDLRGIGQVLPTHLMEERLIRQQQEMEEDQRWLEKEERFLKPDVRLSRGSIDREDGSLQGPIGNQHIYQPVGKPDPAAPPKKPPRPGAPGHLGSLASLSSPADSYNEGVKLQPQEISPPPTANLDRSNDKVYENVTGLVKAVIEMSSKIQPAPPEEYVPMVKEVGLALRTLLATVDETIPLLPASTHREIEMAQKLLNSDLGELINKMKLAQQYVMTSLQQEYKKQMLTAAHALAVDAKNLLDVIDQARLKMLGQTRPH

As usually defined, the inhibition is the drop in the measured response relative to a control, in per cent. Higher therefore signals a response far below the control.

Experiment [1] concerns the target T1, Focal adhesion kinase 1 (Homo sapiens, UniProt Q05397). Description: Inhibition of FAK (unknown origin) at 50 nM relative to control.
In experiment [2] the target is T1, Focal adhesion kinase 1. Description: Inhibition of FAK (unknown origin) at 10 nM relative to control.

For `O=C(O)c1ccc(N(CCCl)CCCl)cc1`, the inhibition was 7.82% on Focal adhesion kinase 1 [1] and 1.42% on Focal adhesion kinase 1 [2].
